Apparent affinities of Ab-14 variants for a coronavirus HR2 peptide

Binding partner: SARS-CoV-2 spike HR2 peptide, sequence PDVDLGDISGINAS.

Each scFv is VH, a 15-residue (Gly4Ser)3 linker, VL, as in the parent Ab-14, and differs from it in the CDRs of the light chain only.
VH: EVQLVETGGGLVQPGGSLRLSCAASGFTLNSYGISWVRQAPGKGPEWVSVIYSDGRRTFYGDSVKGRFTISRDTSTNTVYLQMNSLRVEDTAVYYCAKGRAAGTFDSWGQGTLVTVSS
VL: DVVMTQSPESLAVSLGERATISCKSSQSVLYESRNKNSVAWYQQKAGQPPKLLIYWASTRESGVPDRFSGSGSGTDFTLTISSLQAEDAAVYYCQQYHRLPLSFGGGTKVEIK

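Phage display of a naive human antibody library on the peptide gave the parent. The library (AAYL50) carries one to three amino acid substitutions per variant, with no insertions or deletions. The scFvs were displayed on barcoded MATa yeast, the peptide on MATalpha yeast. Mating (16 h, 30 °C) was followed by selection of diploids and sequencing of their barcodes. The ratio of observed to expected reads was calibrated, replicate by replicate, on BCL2-family standards whose Kd was known from biolayer interferometry. The assay was run in three technical replicates.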

The parent's light chain CDRs are KSSQSVLYESRNKNSVA, WASTRES, QQYHRLPLS; each variant's own CDRs replace them letter for letter. Numbers give log10(Kd / nM), so 0 is 1 nM and 3 is 1 µM. Smaller is tighter. A pair that was not seen in that replicate is written "n.d."; this usually means weak binding, but a binder can also be missed. Empty control strains, which show no peptide, gave a signal in 18% of pairings with library AAYL50; the median was 4.19 and 95% of these signals were weaker than 2.99. No background was subtracted. The control count says in how many pairings with the empty strains this scFv gave a signal, with their mean in brackets.

CDR-L1 | CDR-L2 | CDR-L3 | log10 Kd (nM) by replicate | signal with controls
KSSQSVLYESRNKNSVA | HASTRRS | CQYHRLPLS | n.d. n.d. 4.12 | 4/9 (3.77)
KSHQSSLYECRNKNSVA | WASTRES | QQYHRLPLS | 3.31 2.67 3.43 | 3/9 (3.57)
KSSQSVLYESRAKNSVA | WASTRES | QQYQRLLLS | 3.42 3.50 3.04 | 0/9
KSSQSVLHESRNKNSVA | WAETRES | QQYHRDPLS | n.d. 4.39 6.24 | 5/9 (4.37)
KSSQSVLYESRNKNSVL | WATTRES | QQRHRLPLS | n.d. n.d. n.d. | 1/9 (4.75)
KSSQSVLYESRNKNSVA | TASTRED | QQYHQLPLS | 0.94 1.09 1.19 | 0/9
KSSQSVLYESRNKNSVA | WAHTRES | QQFHRLKLS | n.d. 3.08 4.40 | 1/9 (3.71)
KSSQSVLYESRNKNSVA | WASTRTS | QQYPKLPLS | n.d. n.d. n.d. | 0/9
KSSQSVLYESRNSNSVA | WAYTRES | QQYHRGPLS | n.d. n.d. n.d. | 0/9
PSSQSVLYESRNKNSVA | WASARES | QQFHRLPLS | n.d. n.d. 4.88 | 4/9 (5.36)
KSSQSVLYLSRNKNSAA | WASTRES | QQYHRLPLA | n.d. n.d. n.d. | 3/9 (4.68)
KSSQGVLYESRNKNSVA | WISTRES | CQYHRLPLS | n.d. n.d. n.d. | 0/9
KSSQSVLYESRNLNSVG | WAGTRES | QQYHRLPLS | 3.94 4.73 n.d. | 1/9 (2.88)
KSSQSVLYMSRNKNSVA | WYSTRES | QQYHRLPLS | n.d. n.d. n.d. | 0/9
KSSQSVLGESRNKNSVA | WASTRES | QLYHRLPLS | 5.54 3.73 5.03 | 5/9 (4.80)
WSSQSVLYESRNKNNVA | WASHRES | QQYHRLPLS | 1.03 1.26 1.08 | 1/9 (4.78)
SSSQSVYYESRNKGSVA | WASTRES | QQYHRLPLS | 1.98 1.82 2.06 | 1/9 (4.49)
KSSQSVLYESANINSVA | WAKTRES | QQYHRLPLS | 2.19 2.30 3.47 | 1/9 (2.64)
KSSQSVLYESRNKNCVA | WASTRES | SNYHRLPLS | n.d. n.d. n.d. | 3/9 (4.75)
KSSQSVPYESRNKNSVW | WASTHES | QQYHRLPLS | n.d. n.d. n.d. | 0/9
NSSQSGLYESRNKNSVA | WASRRES | QQYHRLPLS | 1.31 1.51 1.63 | 3/9 (4.86)
KSSQSVLWESRNKNSVA | WASTRES | QQAHVLPLS | n.d. n.d. n.d. | 1/9 (3.12)
KSSQSVLYESINKNSVA | WASTRES | QQYHILPSS | 4.35 5.65 5.85 | 7/9 (4.40)
RSSQSVLYESRNKNSVA | WASTRES | QQYHRLPLS | n.d. 2.11 2.28 | 0/9
KSSQSVLYESRNKNSRA | WASTRES | QDYHRLPHS | n.d. n.d. n.d. | 0/9
ISSQSVLYESRNWNSVA | WISTRES | QQYHRLPLS | 4.96 n.d. 5.66 | 3/9 (4.07)
KSSQSVLYESRNKMSVA | WMSTRES | QQIHRLPLS | n.d. n.d. 3.74 | 2/9 (5.57)
KSSQSVLYESRNKNSRA | WAGTRMS | QQYHRLPLS | n.d. 4.79 5.40 | 5/9 (3.88)
KSSQMVLYESRNKNSVA | WASMRES | QQYHRLDLS | n.d. n.d. n.d. | 2/9 (3.59)
KSSQSVLVESRNKNSVA | WASTRES | QQYHRDPLM | 1.06 1.12 0.72 | 0/9
KSSQGVLYESRCKNSVA | WASTRES | YQYHRLPLS | n.d. 3.57 n.d. | 0/9
KSSQSVLYESENKKSVA | WASTRES | QQYHLLPLS | 1.76 2.21 2.64 | 1/9 (2.31)
KYSQSVLYESRNKNSVA | WASFPES | QQYHRLPLS | 6.71 n.d. n.d. | 3/9 (5.07)
KSSQSVLYESFNYNSVA | WDSTRES | QQYHRLPLS | n.d. n.d. 3.80 | 1/9 (3.52)
KSSQSVLYESWNKNSVA | WAKTRES | QEYHRLPLS | 0.92 1.03 1.00 | 0/9
KSSQSEIYESRNKNSVA | WASTRES | QWYHRLPLS | n.d. n.d. n.d. | 0/9
KSQQSVLYESRNKNSVA | WASTAPS | QQYHRLPLS | 5.19 3.44 n.d. | 6/9 (4.67)
KSSQSVCYESRNMNSVA | WASTRES | QQIHRLPLS | 2.29 1.84 1.96 | 2/9 (5.02)
KSSQSVLYEWRNKNSVA | WASTRES | QQYGRWPLS | 1.04 1.09 1.13 | 1/9 (4.27)
KSSQSVLYESCNKNSVA | WASTRES | QQYHRAPLS | n.d. n.d. 1.75 | 0/9
KMSQSVLYEMRNKNSVA | WASTRCS | QQYHRLPLS | 0.31 0.55 0.41 | 6/9 (4.31)
KSVQSVLYESRNKNSVA | WASTRES | QQYHSLPQS | 5.67 n.d. n.d. | 2/9 (3.69)
KSSQSYLYESRNKNSVA | WASTRES | QIYHRLPLH | 0.98 1.24 1.13 | 1/9 (2.79)
KSSQSVLYESRNKNSVA | WAWTRES | DQYARLPLS | n.d. n.d. n.d. | 0/9
KVSQSVLYESRFKNSVA | WASTRES | QQYHRLPLS | -0.06 0.32 0.18 | 1/9 (5.33)

The opening 4 entries, copied out:

{"CDR-L1": "KSSQSVLYESRNKNSVA", "CDR-L2": "HASTRRS", "CDR-L3": "CQYHRLPLS", "log10 Kd (nM) by replicate": "n.d. n.d. 4.12", "signal with controls": "4/9 (3.77)"}
{"CDR-L1": "KSHQSSLYECRNKNSVA", "CDR-L2": "WASTRES", "CDR-L3": "QQYHRLPLS", "log10 Kd (nM) by replicate": "3.31 2.67 3.43", "signal with controls": "3/9 (3.57)"}
{"CDR-L1": "KSSQSVLYESRAKNSVA", "CDR-L2": "WASTRES", "CDR-L3": "QQYQRLLLS", "log10 Kd (nM) by replicate": "3.42 3.50 3.04", "signal with controls": "0/9"}
{"CDR-L1": "KSSQSVLHESRNKNSVA", "CDR-L2": "WAETRES", "CDR-L3": "QQYHRDPLS", "log10 Kd (nM) by replicate": "n.d. 4.39 6.24", "signal with controls": "5/9 (4.37)"}

From the AlphaSeq antibody data of Engelhart et al. 2022 (doi:10.1038/s41597-022-01779-4), copy in the FLAb collection.